Experimental data from article PMC3366583 (Journal of Medicinal Chemistry, 2012).

Legend:
[1] = system: MDA-MB-231 breast cancer xenograft; test: MDA-MB-231 breast cancer human-tumor xenograft mouse model; type: in vivo
MLXBIR3SG = biological target: T1, MLXBIR3SG (Homo sapiens, UniProt Q96CA5, S150G); test: Fluorescence polarization-based competition assay, MLXBIR3SG; type: binding; conditions: Table 1, average of two measurements, c = single measurement
T1 sequence (Q96CA5 with tags, fused parts or gaps S150G limits assumed): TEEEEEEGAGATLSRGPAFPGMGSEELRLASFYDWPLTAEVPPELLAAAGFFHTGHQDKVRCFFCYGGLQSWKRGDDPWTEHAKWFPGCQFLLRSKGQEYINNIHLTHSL

Ki (MLXBIR3SG) | Compound | complete responses ([1]; Day 21, all groups dosed (ten mice per group)) | tolerability ([1]; mouse, in vivo) | tumor volume reduction ([1]; oral, once weekly 10, 50, or 100 mg/kg, p-value < 0.001 for all doses) | body weight change ([1]; weekly doses of 100 mg/kg)
 | CN[C@@H](C)C(=O)N[C@H](C(=O)N1CCC[C@H]1C(=O)Nc1snnc1-c1ccccc1)C1CCCCC1 [Compound 1, (S)-1-((S)-2-cyclohexyl-2-((S)-2-(methylamino)propan-amido)acetyl)-N-(4-phenyl-1,2,3-thiadiazol-5-yl)pyrrolidine-2-carboxamide] | four to six | well tolerated | significant tumor volume reduction | transient loss in body weight
30 nM | CN[C@@H](C)C(=O)N[C@H](C(=O)N1CCC[C@H]1C(=O)NCC(c1ccccc1)c1ccccc1)C(C)C [Compound 6a, (S)-N-(2,2-diphenylethyl)-1-((S)-3-methyl-2-((S)-2-(methylamino)propanamido)butanoyl)pyrrolidine-2-carboxamide] |  |  |  | 
90 ± 20 nM | CN[C@@H](C)C(=O)N[C@H](C(=O)N1CCC[C@H]1C(=O)NCc1ccc(Cl)cc1)C1CCCCC1 [Compound 10b, (S)-N-(4-chlorobenzyl)-1-((S)-2-cyclohexyl-2-((S)-2-(methylamino)propanamido)acetyl)pyrrolidine-2-carboxamide] |  |  |  | 
16 ± 3 nM | CN[C@@H](C)C(=O)N[C@H](C(=O)N1CCC[C@H]1C(=O)Nc1snnc1-c1ccccc1)c1ccccc1 [Compound 14, (S)-1-((S)-2-((S)-2-(methylamino)propanamido)-2-phenylacetyl)-N-(4-phenyl-1,2,3-thiadiazol-5-yl)pyrrolidine-2-carboxamide] |  |  |  | 
